The values below come from patent US20130333715A1, “SHAMPOO COMPOSITIONS AND METHODS OF MAKING SAME” (The Procter & Gamble Company, priority 2012, published 2013).

Series [1] can be described thus: Calculated conditional stability constants for chelants with Cu^+2 at specified pH. Type of series: physicochemical. From the text: However, as the pH range of the present compositions are acidic (i.e., less than 7), the log alpha value (αm) is considered to be constant and approximately negligible.
The calculated stability constants for a range of chelants with Fe^+3, Cu^+2, and Ca^+2 are given below in Table 3: […]

The nature of series [2]: Calculated conditional stability constants for chelants with Fe^+3 at specified pH. Particulars: pH 5. From the text: The gradual change in ligand species as pH changes can be represented using alpha (α) coefficients, defined as: [formula] […] By combining stability (K) and alpha (α) constants at a given pH, the formula below provides the effective chelating power of a chelant.

For series [3] the following is noted: 1:1 complex, fully deprotonated chelant, 25° C., 0.1M ionic strength; cited from earlier work.

With `O=C(O)CC(NCCNC(CC(=O)O)C(=O)O)C(=O)O` (mixture of isomers) [EDDS, ethylene diamine disuccinic acid], in series [1] (pH 7), the “log Conditional Stability Constant (@ pH) Cu^+2” value is 15.06. The “log Conditional Stability Constant (@ pH) Fe^+3” value in series [2] is on record as 15.11.

Regarding `O=P(O)(O)CN(CCN(CP(=O)(O)O)CP(=O)(O)O)CP(=O)(O)O` [EDTMP], the “log K Fe” value in series [3] is 6.5.

As to `CC(C(=O)O)N(CC(=O)O)CC(=O)O` (stereo not shown) [MGDA, methylglycinediacetic acid], in series [1] (pH 8), the “log Conditional Stability Constant (@ pH) Cu^+2” value is 11.11.
